# What was measured:
# Protein sequences, listed by entry. Tags and fused reporters are not part of them. Residues count along the entry.
# UniProt P17787, 26-502 limits assumed: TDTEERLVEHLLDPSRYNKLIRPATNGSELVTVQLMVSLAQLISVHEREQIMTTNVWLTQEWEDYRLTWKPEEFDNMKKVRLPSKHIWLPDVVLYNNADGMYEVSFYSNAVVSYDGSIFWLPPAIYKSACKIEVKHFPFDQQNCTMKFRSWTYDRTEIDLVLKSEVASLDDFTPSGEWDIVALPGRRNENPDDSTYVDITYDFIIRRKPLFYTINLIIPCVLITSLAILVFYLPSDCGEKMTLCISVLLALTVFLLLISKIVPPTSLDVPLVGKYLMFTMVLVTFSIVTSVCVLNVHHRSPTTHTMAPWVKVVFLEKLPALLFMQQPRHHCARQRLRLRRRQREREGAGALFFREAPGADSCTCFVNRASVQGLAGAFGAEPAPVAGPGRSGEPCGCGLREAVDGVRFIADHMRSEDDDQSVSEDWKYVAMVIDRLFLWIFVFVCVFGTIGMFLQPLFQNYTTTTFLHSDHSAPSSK
# UniProt P43681, 29-627 limits assumed: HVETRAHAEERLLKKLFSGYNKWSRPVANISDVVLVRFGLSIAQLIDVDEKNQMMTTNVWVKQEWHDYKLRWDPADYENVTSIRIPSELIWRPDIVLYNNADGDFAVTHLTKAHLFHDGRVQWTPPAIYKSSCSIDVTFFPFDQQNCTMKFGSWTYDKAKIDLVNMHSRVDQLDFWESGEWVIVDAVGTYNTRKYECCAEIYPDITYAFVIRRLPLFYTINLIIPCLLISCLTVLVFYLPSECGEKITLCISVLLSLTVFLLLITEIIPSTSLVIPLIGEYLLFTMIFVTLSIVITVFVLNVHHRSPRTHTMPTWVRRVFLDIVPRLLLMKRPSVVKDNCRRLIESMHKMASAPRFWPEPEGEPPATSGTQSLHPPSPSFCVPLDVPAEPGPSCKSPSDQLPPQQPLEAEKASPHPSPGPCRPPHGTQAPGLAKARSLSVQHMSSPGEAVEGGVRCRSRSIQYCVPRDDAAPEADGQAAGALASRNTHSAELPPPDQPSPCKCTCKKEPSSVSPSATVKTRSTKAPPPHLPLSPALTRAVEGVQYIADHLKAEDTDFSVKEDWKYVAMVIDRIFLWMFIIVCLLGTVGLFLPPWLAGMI
# UniProt P09483, 31-630 limits assumed: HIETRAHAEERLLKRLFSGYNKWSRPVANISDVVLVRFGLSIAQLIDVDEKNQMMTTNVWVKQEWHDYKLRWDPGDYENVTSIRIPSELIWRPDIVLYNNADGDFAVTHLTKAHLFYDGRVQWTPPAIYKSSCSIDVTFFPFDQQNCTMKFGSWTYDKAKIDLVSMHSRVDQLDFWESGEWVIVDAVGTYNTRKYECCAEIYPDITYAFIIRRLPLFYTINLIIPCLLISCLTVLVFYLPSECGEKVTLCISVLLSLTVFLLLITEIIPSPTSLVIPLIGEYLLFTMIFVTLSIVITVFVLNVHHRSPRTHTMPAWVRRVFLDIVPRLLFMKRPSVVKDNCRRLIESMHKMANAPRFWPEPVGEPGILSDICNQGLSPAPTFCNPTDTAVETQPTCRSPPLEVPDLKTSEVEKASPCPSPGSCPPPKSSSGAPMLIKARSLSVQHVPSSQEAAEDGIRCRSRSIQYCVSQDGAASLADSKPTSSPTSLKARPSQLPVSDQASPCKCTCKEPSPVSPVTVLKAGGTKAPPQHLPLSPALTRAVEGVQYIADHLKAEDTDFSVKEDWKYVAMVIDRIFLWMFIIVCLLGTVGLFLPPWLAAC
# UniProt P12390, 25-500 limits assumed: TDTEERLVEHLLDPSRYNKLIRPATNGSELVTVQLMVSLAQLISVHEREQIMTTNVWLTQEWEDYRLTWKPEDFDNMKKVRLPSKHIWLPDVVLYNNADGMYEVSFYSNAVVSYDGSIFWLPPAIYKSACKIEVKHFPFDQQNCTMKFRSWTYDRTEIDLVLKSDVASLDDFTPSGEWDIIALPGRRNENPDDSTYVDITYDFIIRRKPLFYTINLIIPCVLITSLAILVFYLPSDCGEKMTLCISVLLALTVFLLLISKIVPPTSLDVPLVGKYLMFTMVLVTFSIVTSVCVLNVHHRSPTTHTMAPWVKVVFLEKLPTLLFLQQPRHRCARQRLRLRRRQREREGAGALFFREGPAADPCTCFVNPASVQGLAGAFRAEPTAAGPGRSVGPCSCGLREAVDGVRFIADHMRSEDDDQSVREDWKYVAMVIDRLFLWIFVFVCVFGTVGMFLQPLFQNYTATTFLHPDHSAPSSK
# UniProt Q05941, 23-502 limits assumed: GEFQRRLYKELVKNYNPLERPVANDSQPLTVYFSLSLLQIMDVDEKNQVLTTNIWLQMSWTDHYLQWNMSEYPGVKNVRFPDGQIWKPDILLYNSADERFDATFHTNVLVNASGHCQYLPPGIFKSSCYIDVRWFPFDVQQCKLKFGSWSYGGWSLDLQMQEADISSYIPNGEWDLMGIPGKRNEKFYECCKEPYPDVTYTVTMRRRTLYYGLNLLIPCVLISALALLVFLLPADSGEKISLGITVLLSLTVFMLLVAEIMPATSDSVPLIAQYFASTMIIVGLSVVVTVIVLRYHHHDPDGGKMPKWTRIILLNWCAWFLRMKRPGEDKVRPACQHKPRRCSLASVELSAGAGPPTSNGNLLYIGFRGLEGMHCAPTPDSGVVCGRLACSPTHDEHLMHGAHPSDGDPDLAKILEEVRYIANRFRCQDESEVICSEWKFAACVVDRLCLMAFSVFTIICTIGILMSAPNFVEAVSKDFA
# Human α4β2 = Human α4β2 (Homo sapiens, UniProt P17787+P43681); assay: Binding at human α4β2 subtype (Table 1); details: read-out: Human α4β2 Ki
# α4β2 nAChR Subtype = α4β2 nAChR Subtype (Rattus norvegicus, UniProt P09483+P12390); assay: Radioligand binding ([3H]nicotine) at rat α4β2 nAChR subtype, rat cerebral cortex membranes; details: read-out: Rat α4β2 Ki, [3H]nicotine 5 nM
# Description: Rats (female, Sprague-Dawley), weighing 150-250 g, were maintained on a 12 h light/dark cycle and were allowed free access to water and food supplied by PMI Nutrition International, Inc. Animals were anesthetized with 70% CO2, then decapitated. Brains were removed and placed on an ice-cold platform. The cerebral cortex was removed and placed in 20 volumes (weight:volume) of ice-cold preparative buffer (137 mM NaCl, 10.7 mM KCl, 5.8 mM KH2PO4, 8 mM Na2HPO4, 20 mM HEPES (free acid), 5 mM iodoacetamide, 1.6 mM EDTA, pH 7.4); PMSF, dissolved in methanol to a final concentration of 100 μM, was added and the suspension was homogenized by Polytron. […] Protein was determined by the method of Lowry et al., J. Biol. Chem. 193: 265 (1951), using bovine serum albumin as the standard.
# The binding of [^3H]nicotine was measured using a modification of the methods of Romano et al., Science 210: 647 (1980) and Marks et al., Mol. Pharmacol. 30: 427 (1986). […] The binding of [^3H]nicotine was measured using a 3 h incubation at 4° C. […] Non-specific binding was determined by inclusion of 10 μM non-radioactive L-nicotine (Acros Organics) in selected wells.
# The inhibition of [^3H]nicotine binding by test compounds was determined by including seven different concentrations of the test compound in selected wells. […]
# α7 nAChR Subtype = α7 nAChR Subtype (Rattus norvegicus, UniProt Q05941); assay: Radioligand binding ([3H]MLA) at α7 nAChR subtype, rat hippocampus membranes; HTS at 5 μM; details: 5 μM compound, 5 nM 3H-MLA
# Description: Rats (female, Sprague-Dawley), weighing 150-250 g, were maintained on a 12 h light/dark cycle and were allowed free access to water and food supplied by PMI Nutrition International, Inc. Animals were anesthetized with 70% CO2, then decapitated. Brains were removed and placed on an ice-cold platform. The hippocampus was removed and placed in 10 volumes (weight:volume) of ice-cold preparative buffer (137 mM NaCl, 10.7 mM KCl, 5.8 mM KH2PO4, 8 mM Na2HPO4, 20 mM HEPES (free acid), 5 mM iodoacetamide, 1.6 mM EDTA, pH 7.4); PMSF, dissolved in methanol to a final concentration of 100 μM, was added and the tissue suspension was homogenized by Polytron. The homogenate was centrifuged at 18,000×g for 20 min at 4° C. and the resulting pellet was re-suspended in 10 volumes of ice-cold water. After 60 min incubation on ice, a new pellet was collected by centrifugation at 18,000×g for 20 min at 4° C. The final pellet was re-suspended in 10 volumes of buffer and stored at −20° C. […] Protein was determined by the method of Lowry et al., J. Biol. Chem. 193: 265 (1951), using bovine serum albumin as the standard.
# The binding of [^3H]MLA was measured using a modification of the methods of Davies et al., Neuropharmacol. […] The binding of [^3H]MLA was determined using a 2 h incubation at 21° C. […] Non-specific binding was determined by inclusion of 50 μM non-radioactive MLA in selected wells. […]
smiles,measurement,setting,value
O=C(c1cc(Br)co1)N1C[C@@H]2CN[C@@H](C2)C1,Ki,Human α4β2,30.5 nM
same,Ki,α4β2 nAChR Subtype,67.5 nM
same,α7 high throughput screening (HTS) binding,α7 nAChR Subtype,"ND; Failed HTS (the compound failed to inhibit, at 5 μM concentration, the binding of 5 nM ^3H-MLA (methyllycaconitine) by at least 50%)"
